{"source": "paper PMC9069406", "about": "(Acta Pharmaceutica Sinica. B, 2021)", "key": {"4T1 cells": {"system": "4T1 cells", "test": "Transwell migration assay", "assay_type": "cell-based, murine", "conditions": "Mus musculus, 4T1, 24 h, read-out: inhibition of migration"}, "MDA-MB-231 cells": {"system": "MDA-MB-231 cells", "test": "Transwell migration assay", "assay_type": "cell-based", "conditions": "Homo sapiens, MDA-MB-231, 24 h, read-out: inhibition of migration"}}}
{"compound": "CCc1cnn2c(NCc3ccc[n+]([O-])c3)cc(N3CCCC[C@H]3CCO)nc12", "note": "[Complex 20, dinaciclib]", "values": [{"measurement": "inhibition at 0.3 µM", "setting": "4T1 cells", "result": 58, "unit": "%"}, {"measurement": "inhibition at 0.3 µM", "setting": "MDA-MB-231 cells", "result": 64, "unit": "%"}]}
